Among the data in patent US11858925B2, “GAS41 inhibitors and methods of use thereof” (The Regents of the University of Michigan, priority 2020, dated 2024) are IC50 values, retold here.

The chains behind the UniProt entries cited, without tags or fusion partners. Residues count along the entry.
UniProt O95619, 1-148: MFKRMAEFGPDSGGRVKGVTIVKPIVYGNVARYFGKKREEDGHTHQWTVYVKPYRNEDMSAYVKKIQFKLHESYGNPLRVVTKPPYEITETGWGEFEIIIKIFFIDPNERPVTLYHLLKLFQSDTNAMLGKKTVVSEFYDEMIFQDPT

Structures are written as SMILES. Bounds are passed on as bounds.

In one assay the target is T1, GAS41 YEATS domain (GST-GAS41(1-148)) (Homo sapiens, UniProt O95619). Briefly: biochemical.
Broadly, the IC50 is the midpoint of a concentration-inhibition curve. Low values mean inhibition by little substance, high ones a need for much substance. Compound `Cc1nc(C2CN(C(=O)c3ccc(NC(=O)[C@@H]4CCCN4)s3)C2)sc1-c1ccncc1` [Compound 106] had a half-maximal inhibitory concentration (IC50) below 2 µM.

`CC(NC(=O)c1ccccc1)c1ccc(C(=O)N2CCCC2)s1` (stereo not drawn) [Compound 9] registered a concentration for half-maximal inhibition (IC50) above 50 µM.

On to `CN[C@@H](Cc1ccccc1)C(=O)Nc1ccc(C(=O)N2CCCC2)s1` [Compound 29], for which the IC50 was above 50 µM.

In turn, `O=C(Nc1ccc(C(=O)N2CC(c3nccs3)C2)s1)[C@@H]1CCCN1` [Compound 85, (S)—N-(5-(3-(thiazol-2-yl)azetidine-1-carbonyl)thiophen-2-yl)pyrrolidine-2-carboxamide] yielded an IC50 of 2 to 10 µM.

`O=C(Nc1ccc(C(=O)N2CCCCC2)s1)[C@@H]1CCCN1` [Compound 74] gave an IC50 above 50 µM.

For `O=C(NCc1ccc(C(=O)N2CCCC2)s1)C1CNC1` [Compound 14, N-((5-(pyrrolidine-1-carbonyl)thiophen-2-yl)methyl)azetidine-3-carboxamide], the IC50 is above 50 µM.

`O=C(Nc1ccc(C(=O)N2CC(c3ccncc3)C2)s1)C1CCCN1` (stereo not drawn) [Compound 40] came in with a concentration for half-maximal inhibition (IC50) of 10 to 50 µM.

`O=C(Nc1ccc(C(=O)N2CC(c3cccnc3)C2)s1)C1CCCN1` (stereo not drawn) [Compound 46] gave a concentration for half-maximal inhibition (IC50) of 10 to 50 µM.

The compound `O=C(Nc1ccc(C(=O)N2CC(c3nc4ccccc4s3)C2)s1)[C@@H]1CCCN1` [Compound 88] registered an IC50 of 2 to 10 µM.

As to `O=C(Nc1ccc(C(=O)N2CC(c3ncc(-c4ccn[nH]4)s3)C2)s1)[C@@H]1CCCN1` [Compound 110], the half-inhibitory concentration (IC50) was below 2 µM.

Compound `CCCO[C@H]1CN[C@H](C(=O)Nc2ccc(C(=O)N3CC(c4nc5ccccc5s4)C3)s2)C1` [Compound 98] returned an IC50 below 2 µM.

For the compound `O=C(Nc1ccc(C(=O)N2CC(c3ncc(-c4nccs4)s3)C2)s1)[C@@H]1CCCN1` [Compound 108], the IC50 lay within 2 to 10 µM.

Compound `O=C(Nc1ccc(C(=O)N2CC(Oc3c(Cl)cncc3Cl)C2)s1)[C@@H]1CCCN1` [Compound 59] displayed an IC50 of 10 to 50 µM.

`COC1CC2(C1)CN(C(=O)c1ccc(NC(=O)[C@@H]3CCCN3)s1)C2` [Compound 102] registered an IC50 of 10 to 50 µM.

`CC(C)(C)c1ccc(C(=O)N2CCCC2)s1` [Compound 134, (5-(tert-butyl)thiophen-2-yl)(pyrrolidin-1-yl)methanone] displayed an IC50 above 50 µM.

On to `O=C(c1cc2c(s1)N(C(=O)[C@@H]1CCCN1)CCC2)N1CC(c2nccs2)C1` [Compound 80], for which the concentration for half-maximal inhibition (IC50) is 10 to 50 µM.

Compound `O=C(Nc1ccc(C(=O)N2CCCC2)s1)[C@@H]1C[C@H](O)CN1` [Compound 53] yielded an IC50 of 10 to 50 µM.

`O=C(NCc1ccc(C(=O)N2CC(Oc3ccccn3)C2)s1)c1ccccc1` [Compound 12] had a half-inhibitory concentration (IC50) above 50 µM.

`O=C(Nc1cnc(C(=O)N2CC(c3nccs3)C2)s1)[C@@H]1CCCN1` [Compound 84] had a concentration for half-maximal inhibition (IC50) of 10 to 50 µM.

In the case of `O=C(Nc1ccc(C(=O)N2CC(OCC(F)(F)F)C2)s1)[C@@H]1CCCN1` [Compound 64], the IC50 is 10 to 50 µM.

In the case of `O=C(Nc1ccc(C(=O)N2CC(=Cc3ccccc3)C2)s1)[C@@H]1CCCN1` [Compound 83], the half-maximal inhibitory concentration (IC50) is above 50 µM.

For the compound `Cc1cc(C(=O)N2CCCC2)sc1NC(=O)[C@@H]1CCCN1` [Compound 34], the IC50 was above 50 µM.

In the case of `O=C(Nc1ccc(C(=O)N2CCCC2)s1)[C@H]1CCCN1` [Compound 45], the IC50 was above 50 µM.

`O=C(NCc1ccc(C(=O)N2CC(Oc3cccnc3)C2)s1)c1ccccc1` [Compound 11] returned a half-inhibitory concentration (IC50) above 50 µM.

On to `O=C(Nc1ccc(C(=O)N2CCCC2)s1)C1CNC1` [Compound 20], for which the half-inhibitory concentration (IC50) is above 50 µM.

Compound `O=C(Nc1ccc(C(=O)N2CC3(C2)CN(c2ccccn2)C3)s1)C1CCCN1` (stereo not drawn) [Compound 39] returned an IC50 above 50 µM.

`O=C(Nc1ccc(C(=O)N2CC(c3ncc(-c4cccc(C5CCNCC5)c4)s3)C2)s1)[C@@H]1CCCN1` [Compound 128] yielded an IC50 of 2 to 10 µM.

`O=C(Nc1ccc(C(=O)N2CCCC2)s1)[C@@H]1C[C@@H](OCc2ccccc2)CN1` [Compound 70] had an IC50 of 10 to 50 µM.

`O=C(Nc1ccc(C(=O)N2Cc3ccccc3C2)s1)[C@@H]1CCCN1` [Compound 78] displayed a concentration for half-maximal inhibition (IC50) of 10 to 50 µM.

`CN1CCN(Cc2cccc(-c3cnc(C4CN(C(=O)c5ccc(NC(=O)[C@@H]6CCCN6)s5)C4)s3)c2)CC1` [Compound 129] came in with a half-maximal inhibitory concentration (IC50) below 2 µM.

With `O=C(NCc1ccc(C(=O)N2CC(Oc3ccncc3Cl)C2)s1)c1ccccc1` [Compound 36], the IC50 lay in the range of 10 to 50 µM.

The compound `O=C(Nc1ccc(C(=O)N2CC(Oc3ccncc3)C2)s1)C1CCCN1` (stereo not drawn) [Compound 48] gave an IC50 above 50 µM.

In the case of `O=C(Nc1ccc(C(=O)N2CC(c3ncc(C4=CCNCC4)s3)C2)s1)[C@@H]1CCCN1` [Compound 112], the 50% inhibitory concentration (IC50) is 2 to 10 µM.

Compound `O=C(Nc1ccc(C(=O)N2CC(O)(c3ccccc3)C2)s1)[C@@H]1CCCN1` [Compound 66] displayed a 50% inhibitory concentration (IC50) above 50 µM.

As for `O=C(Nc1ccc(C(=O)N2CC(c3nc4c(Cl)cccc4s3)C2)s1)[C@@H]1CCCN1` [Compound 68], the half-inhibitory concentration (IC50) was in the range of 10 to 50 µM.

In turn, `C=C1CN[C@H](C(=O)Nc2ccc(C(=O)N3CCCC3)s2)C1` [Compound 65] showed an IC50 of 10 to 50 µM.

`O=C(NCc1ccc(C(=O)N2CC(Oc3nccs3)C2)s1)c1ccccc1` [Compound 16] showed an IC50 above 50 µM.

For `O=C(Nc1ccc(C(=O)N2CC(Oc3ccc(F)cc3Cl)C2)s1)[C@@H]1CCCN1` [Compound 56], the IC50 is 10 to 50 µM.

Consider `CC(=O)NCc1cccc(-c2cnc(C3CN(C(=O)c4ccc(NC(=O)[C@@H]5CCCN5)s4)C3)s2)c1` [Compound 241], for which the IC50 was below 2 µM.

For the compound `CN[C@H](Cc1ccccc1)C(=O)Nc1ccc(C(=O)N2CCCC2)s1` [Compound 30], the IC50 is above 50 µM.

In the case of `O=C(Nc1ccc(C(=O)N2CCCC2)s1)C1CN(c2ccccc2)CCN1` (stereo not drawn) [Compound 31], the IC50 was above 50 µM.

As for `O=C(Nc1ccc(C(=O)N2CC(c3ncc(-c4cnc[nH]4)s3)C2)s1)[C@@H]1CCCN1` [Compound 111], the half-maximal inhibitory concentration (IC50) is below 2 µM.

The compound `CCCC(=O)NCc1ccc(C(=O)N2CCCC2)s1` [Compound 13] yielded an IC50 above 50 µM.

Regarding `CN(C(=O)[C@@H]1CCCN1)c1ccc(C(=O)N2CC(c3nccs3)C2)s1` [Compound 100], the IC50 is 2 to 10 µM.

Another assay deals with T1, GAS41 YEATS domain (GST-GAS41(1-148)).
Assay: not given
For the compound `CC(C)(C)c1ccc(C(=O)N2CCCC2)s1` [Compound 134, (5-(tert-butyl)thiophen-2-yl)(pyrrolidin-1-yl)methanone], inhibition was half-maximal at 210 µM (IC50).
